Literature values in US8293868B2 (priority 2004, dated 2012).

How the values were obtained:
[1] = system: voltage-gated calcium channel currents
[2] = system: insects; details: injection

Substance: omega-ACTX-Hv1a
- selectivity of calcium channel current inhibition, insect versus mammalian [1]: selectively inhibit insect, as opposed to mammalian, voltage-gated calcium channel currents
- symptoms in injected insects (previously characterized toxin) [2]: spastic paralysis followed by death
